Measurements reported in patent publication US20240009204A1 (Starton Therapeutics, Inc., priority 2020, published 2024).

What was measured:
[1] = 4 mg a day minimum dose equivalent
[2] = test system: healthy female volunteers

## Cc1cc2c(s1)Nc1ccccc1N=C2N1CCN(C)CC1 [olanzapine, 2-methyl-10-(4-methyl-1-piperazinyl)-4H-thieno-[2,3-b][1.5]benzo-diazepine]
[1]
  target steady state blood level (mid-point of range): 13 µg/L
[2]; all oral doses (2, 4, 6, 8 mg), 1=no sedation, 10=severe sedation
  Sedation severity scores on day 1, versus placebo: significantly different (higher sedation) than placebo
[2]; oral 2-8 mg a day
  dose dependence of sedation in the first day of dosing: NOT dose dependent
